Target: Estrogen receptor beta (Homo sapiens) (UniProt Q92731)
Test: Partial agonist activity at wild type human ERbeta in HEK-293T cells transfected with 3xERE-driven luciferase reporter plasmid by luciferase reporter gene assay
Assay type: cell-based
Conditions: filed as partial agonist

By UniProt entry, the sequences of proteins in these tests, tags left out.
UniProt Q92731, whole entry: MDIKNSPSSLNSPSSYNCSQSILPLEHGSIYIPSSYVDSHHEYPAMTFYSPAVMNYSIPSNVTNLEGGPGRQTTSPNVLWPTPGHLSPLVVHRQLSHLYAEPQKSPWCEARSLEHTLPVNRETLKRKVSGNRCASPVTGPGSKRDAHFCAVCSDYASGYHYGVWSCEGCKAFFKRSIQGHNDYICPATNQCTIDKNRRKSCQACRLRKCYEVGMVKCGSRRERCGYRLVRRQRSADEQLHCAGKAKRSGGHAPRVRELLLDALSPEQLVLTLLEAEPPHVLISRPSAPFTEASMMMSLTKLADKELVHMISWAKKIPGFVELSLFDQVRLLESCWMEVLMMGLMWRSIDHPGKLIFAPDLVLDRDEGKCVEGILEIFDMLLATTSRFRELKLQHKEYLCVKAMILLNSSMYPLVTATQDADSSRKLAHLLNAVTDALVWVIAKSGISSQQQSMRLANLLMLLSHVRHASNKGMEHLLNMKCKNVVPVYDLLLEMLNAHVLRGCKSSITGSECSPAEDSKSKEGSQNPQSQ

Activity: 0.15 mM
SMILES: NS(=O)(=O)c1ccc2c(c1)C1C=CCC1C(c1ccc(O)cc1Cl)N2 (racemic)

Reference: ChEMBL document CHEMBL5352473, “Design, synthesis, biological evaluation and crystal structure determination of dual modulators of carbonic anhydrases and estrogen receptors” (Eur J Med Chem, 2023)
